The source made the active and inactive calls. The rule behind the calls is not given here.
Experiments:
[1] = biological target: Fatty-acid amide hydrolase 1 (Rattus norvegicus) (UniProt P97612); experiment: Inhibition of rat FAAH assessed as recovery of enzyme activity at IC80 concentration after 18 hrs at 4 degC by dialysis
[2] = biological target: Fatty-acid amide hydrolase 1 (Rattus norvegicus) (UniProt P97612); experiment: Inhibition of rat FAAH assessed as recovery of enzyme activity at IC80 concentration after 18 hrs at 22 degC by dialysis

By UniProt entry, the sequences of proteins in these tests, tags left out.
UniProt P97612, whole entry: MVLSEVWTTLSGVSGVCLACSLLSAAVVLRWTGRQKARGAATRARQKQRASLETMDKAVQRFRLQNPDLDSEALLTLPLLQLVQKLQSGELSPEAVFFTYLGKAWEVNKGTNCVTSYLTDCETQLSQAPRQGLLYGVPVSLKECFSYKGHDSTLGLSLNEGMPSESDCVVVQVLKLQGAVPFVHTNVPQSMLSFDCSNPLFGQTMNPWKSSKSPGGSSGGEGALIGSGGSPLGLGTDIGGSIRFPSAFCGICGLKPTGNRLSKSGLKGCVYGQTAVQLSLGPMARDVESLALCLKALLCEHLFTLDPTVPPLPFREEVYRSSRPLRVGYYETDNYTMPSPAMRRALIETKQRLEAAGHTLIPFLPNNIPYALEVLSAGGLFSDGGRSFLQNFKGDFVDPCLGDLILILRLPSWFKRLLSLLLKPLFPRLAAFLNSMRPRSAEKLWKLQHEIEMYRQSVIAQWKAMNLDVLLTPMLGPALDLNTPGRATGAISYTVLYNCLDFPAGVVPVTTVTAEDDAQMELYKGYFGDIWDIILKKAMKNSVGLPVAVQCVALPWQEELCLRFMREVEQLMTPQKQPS

Activity [1]: inactive
Activity [2]: inactive
Structure (SMILES): O=C(CCCCCCc1ccccc1)c1ncc(-c2ccccn2)o1

Reference: ChEMBL document CHEMBL1139400, “Thiadiazolopiperazinyl ureas as inhibitors of fatty acid amide hydrolase” (Bioorg Med Chem Lett, 2008)
